Values of other authors in article PMC3220680, “Microsecond Molecular Dynamics Simulations of Intrinsically Disordered Proteins Involved in the Oxidative Stress Response” (PLoS ONE, 2011).

Amino acid sequences for entries named in this document (tags omitted). Residues count along the entry.
UniProt Q9Z2X8, 309-624: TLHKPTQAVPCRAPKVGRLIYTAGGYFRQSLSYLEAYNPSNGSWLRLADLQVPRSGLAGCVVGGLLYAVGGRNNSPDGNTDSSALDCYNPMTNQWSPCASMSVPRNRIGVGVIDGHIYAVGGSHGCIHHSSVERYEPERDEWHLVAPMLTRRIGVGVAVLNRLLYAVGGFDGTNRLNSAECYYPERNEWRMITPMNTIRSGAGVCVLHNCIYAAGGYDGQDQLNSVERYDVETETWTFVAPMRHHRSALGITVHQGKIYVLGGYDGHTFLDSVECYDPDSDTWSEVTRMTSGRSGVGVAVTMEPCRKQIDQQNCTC
UniProt Q60795, whole entry, looked up, tested part not stated: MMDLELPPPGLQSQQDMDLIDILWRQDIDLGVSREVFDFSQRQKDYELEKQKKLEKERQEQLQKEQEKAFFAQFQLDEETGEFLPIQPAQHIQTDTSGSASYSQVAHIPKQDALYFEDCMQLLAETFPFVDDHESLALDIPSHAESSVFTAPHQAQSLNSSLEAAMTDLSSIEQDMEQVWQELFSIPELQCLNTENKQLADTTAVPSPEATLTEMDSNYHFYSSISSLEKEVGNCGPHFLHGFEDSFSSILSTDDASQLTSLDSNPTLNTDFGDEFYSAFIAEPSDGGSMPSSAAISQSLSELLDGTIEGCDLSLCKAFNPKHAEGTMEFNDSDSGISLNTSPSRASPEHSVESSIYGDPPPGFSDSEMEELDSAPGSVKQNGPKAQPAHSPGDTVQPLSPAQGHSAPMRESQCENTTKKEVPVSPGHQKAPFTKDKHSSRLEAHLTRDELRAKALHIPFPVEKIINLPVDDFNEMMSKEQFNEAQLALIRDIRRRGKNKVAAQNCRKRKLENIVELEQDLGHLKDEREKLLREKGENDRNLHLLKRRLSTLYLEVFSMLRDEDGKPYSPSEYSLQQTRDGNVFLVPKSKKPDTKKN

Biological target: Keap1 Kelch (Mus musculus) (UniProt Q9Z2X8)
Assay: ITC
Conditions: cited from earlier work

Nrf2 ETGE 9-mer peptide 9-mer ETGE peptide (from UniProt Q60795)
Kd: 182 nM
